Screening data as filed in PubChem.
Rows were chosen to be rich in hits. Some 1.6% of all compounds tested hit in one or more screens of this group.
Vif imaging = blocks HIV Vif function; actives 0.35% (n = 340,000); inhibition, % at 7.49 µM; AID 602346; HEK293T cells, Vif self-association by quenched fluorescence, imaging, 24 h; in the data active means inhibition above about 50%, passing the limit was not always enough
ARNT-TACC3 inh = disrupts binding between human ARNT and TACC3 | actives 0.66% (n = 390,000) | AlphaScreen His-ARNT PAS-B/GST-TACC3 binding, luminescence; TACC3 fragment carries E629A point mutation | Q9Y6A5 | inhibition, % at 9.99 µM;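 active means mean inhibition of replicates at least 50% and at least half of replicates each reaching 50%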;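 further: 0% = complete ARNT plus TACC3 wells and 100% = ARNT alone without TACC3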
CAL PDZ FP-1 = human CAL PDZ-peptide interaction inhibition | Q9HD26 | purified CAL PDZ, TMR-peptide fluorescence polarization, 1 h | inhibition, % at 20 µM | actives 0.02% (n = 330,000) | AID 504414;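 active means highest replicate inhibition of at least 40%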;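 further: plate controls were DMSO neutral control wells for no effect and unlabeled competitor peptide control wells for full effect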
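Material: tagged CAL PDZ protein CerCALP, purified; buffer or medium: sodium phosphate/NaCl buffer pH 7.4 with TCEP, IgG, Thesit; also added: fluorescent TMR peptide probe; schedule: 1 h incubation at room temperature before polarization reading; technique: fluorescence polarization from S- and P-plane intensities, G-factor corrected; control set: unlabelled peptide and DMSO controls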
UUG fidelity = modulators of yeast start codon fidelity, primary screen, whole organism, S. cerevisiae, single point, plate reader | AID 602363, 2012 | actives 0.13% (n = 350,000) | activity score, % at 18.7 µM | S. cerevisiae UUG-firefly luciferase reporter, luminescence/redox ratio;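 active means replicate mean at a twofold rise or more, about +100% in these data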;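 further: firefly luciferase made from a UUG start codon reports start codon fidelity; reporter light over untreated wells divided by growth signal over untreated wells; some hits fall short of that in this replicate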
CAL PDZ FP-2 = CAL PDZ (human) peptide binding inhibition; Q9HD26; purified CAL PDZ, TMR-peptide fluorescence polarization, 1 h; inhibition, % at 24.9 µM; actives 0.92% (n = 300,000);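 active means mean inhibition of at least 30% with at least half of replicates also reaching 30%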;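 further: 0% = DMSO neutral control and 100% = excess unlabeled competitor peptide PRC23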
PglD DTNB = blocks C. jejuni PglD acetyltransferase activity. purified PglD enzyme, DTNB colorimetric CoA detection. inhibition, % at 12.5 µM. actives 0.098% (n = 360,000); in the data active means inhibition above about 16%, passing the limit was not always enough
The depositor's hits bear a star; nt = not tested or not shown; + = active, no number.

Abbreviations: A = Vif imaging; B = ARNT-TACC3 inh; C = CAL PDZ FP-1; D = UUG fidelity; E = CAL PDZ FP-2; F = PglD DTNB
[1] CO[C@H]1CN(C)C(=O)c2ccc(NC(C)=O)cc2OC[C@@H](C)NC[C@@H]1C
  A: nt | B: -1.1 | C: nt | D: 0.6 | E: nt | F: 5.2

[2] CO[C@H]1CN(C)C(=O)c2cc(NC(C)=O)ccc2OC[C@@H](C)NC[C@@H]1C
  A: nt | B: -1.7 | C: nt | D: nt | E: nt | F: 19.2*

[3] CO[C@@H]1CN(C)C(=O)c2cc(NS(=O)(=O)c3cccc(C)c3)ccc2OC[C@@H](C)NC[C@H]1C
  A: nt | B: 12.7* | C: nt | D: 27.7 | E: nt | F: -45.1

[4] CC(C)C#Cc1cnc2c(c1)C(=O)N([C@H](C)CO)C[C@H](C)[C@H](CN(C)C(=O)c1cnccn1)O2
  A: nt | B: -9.8 | C: nt | D: 2.7 | E: nt | F: 3.3

[5] CCc1ccc(OCC(=O)N2CCc3ccccc32)cc1
  A: -7.2 | B: -2.2 | C: -0.8 | D: -15.6 | E: 37.8* | F: -1.6

[6] CCC(=O)N(C)C[C@H]1Oc2cc(-c3ccccc3F)ccc2S(=O)(=O)N([C@@H](C)CO)C[C@@H]1C
  A: nt | B: -1.0 | C: nt | D: 7.6 | E: nt | F: 0.4

[7] COCCCNC(=O)C1CCC(=O)N(c2ccc3c(c2)OCO3)C1c1ccc(OC)cc1 (stereo not drawn)
  A: 9.3 | B: -4.3 | C: 0.9 | D: -10.6 | E: + | F: 2.3

[8] COc1ccc(CN(C)C[C@@H]2Oc3ccc(NC(=O)CCN4CCOCC4)cc3CC(=O)N([C@@H](C)CO)C[C@H]2C)cc1
  A: nt | B: 3.1 | C: nt | D: -1.5 | E: nt | F: 3.8

[9] Cc1ccccc1Oc1ncnc2sccc12
  A: -0.7 | B: -2.7 | C: -0.1 | D: -9.9 | E: nt | F: -7.1

[10] c1ccc(Oc2ncnc3sccc23)cc1
  A: -6.7 | B: 4.7 | C: -0.3 | D: -2.8 | E: 64.3* | F: -3.0

[11] COC(=O)C[C@@H]1CC[C@H]2[C@@H](COc3ccc(NC(=O)NCc4ccccc4)cc3C(=O)N2C)O1
  A: nt | B: -3.0 | C: nt | D: 0.4 | E: nt | F: -2.5

[12] C/C(=N\NC(=O)CNC(=O)c1ccc(F)cc1)c1ccco1
  A: 72.5* | B: -4.9 | C: -1.9 | D: -26.7 | E: -0.1 | F: -1.5

[13] Cc1ccc(/C=C/C(=O)Nc2nn[nH]n2)o1
  A: 0.5 | B: 60.6* | C: -2.1 | D: nt | E: -0.6 | F: nt

[14] CCN(CC)C(=O)COc1coc(CN2CCN(c3ccc(F)cc3)CC2)cc1=O
  A: -6.3 | B: -4.7 | C: -0.9 | D: 5.4 | E: -4.0 | F: -2.9

[15] CCOC(=O)COc1coc(CN2CCN(c3ccc(F)cc3)CC2)cc1=O
  A: 6.3 | B: -1.6 | C: -0.8 | D: -5.5 | E: 40.9* | F: -1.8

[16] O=C(NCc1ccc(Cl)cc1)N1CCOCC1
  A: 50.4* | B: -6.7 | C: -0.6 | D: -0.7 | E: -3.7 | F: 6.5

[17] Cc1ccc(-n2sc3ccccc3c2=O)cc1S(=O)(=O)N1CCCCC1
  A: -16.0 | B: -0.4 | C: 0.7 | D: 9.7 | E: -2.1 | F: 22.1*

[18] O=c1c2ccccc2sn1-c1ccccc1
  A: -18.4 | B: 10.2 | C: -1.1 | D: 194.8* | E: -0.8 | F: 3.5

[19] CN(C)c1ccc2c(c1)[C@H]1C[C@@H](CC(=O)NCc3ccc4c(c3)OCO4)O[C@@H](CO)[C@H]1O2
  A: nt | B: 3.5 | C: nt | D: nt | E: nt | F: 1.5

[20] C[C@H](CO)N1C[C@H](C)[C@H](CN(C)Cc2ccc(C(F)(F)F)cc2)Oc2ccc(NC(=O)Nc3cccc4ccccc34)cc2CC1=O
  A: nt | B: 4.2 | C: nt | D: -2.9 | E: nt | F: 2.5

[21] CC(=O)Nc1cccc(NC(=O)c2cc(-c3ccccn3)nc3ccc(Cl)cc23)c1
  A: 69.8* | B: 9.8 | C: -2.5 | D: -22.2 | E: -2.6 | F: -2.1

[22] CC(=O)Nc1cccc(NC(=O)c2cc(-c3cccnc3)nc3ccc(Cl)cc23)c1
  A: -7.6 | B: 3.3 | C: -0.8 | D: nt | E: -9.5 | F: nt

[23] CCC(=O)Nc1ccc2c(c1)C(=O)N(C)[C@@H]1CC[C@H](CC(=O)Nc3cccc(OC)c3)O[C@@H]1CO2
  A: nt | B: -4.6 | C: nt | D: -0.1 | E: nt | F: 2.0

[24] Cc1nc(C)n(CC(=O)N2CCCC(C(=O)c3ccc(C(F)(F)F)cc3)C2)n1 (stereo not drawn)
  A: 95.8* | B: -7.4 | C: -1.9 | D: nt | E: -1.9 | F: nt

[25] COc1ccc(C(=O)C2CCCN(C(=O)Cn3nc(C)nc3C)C2)cc1F (stereo not drawn)
  A: nt | B: nt | C: nt | D: -15.0 | E: nt | F: 2.1

[26] CN1C[C@@H]2[C@H](c3ccccc31)[C@H](CO)N2Cc1ccccc1Cl
  A: nt | B: 2.9 | C: nt | D: 4.6 | E: nt | F: -5.2

[27] O=C(COc1ccc(Cl)c2cccnc12)N1CCOCC1
  A: -1.5 | B: nt | C: 0.0 | D: -15.6 | E: 115.4* | F: -1.8

[28] CC(C)CN1C(=O)c2ccc(NC(=O)Cc3ccccc3)cc2C1=O
  A: nt | B: -1.5 | C: -0.2 | D: nt | E: 74.3* | F: nt

[29] NC(=S)N/N=C/c1ccccc1OC(=O)c1cc2ccccc2oc1=O
  A: -4.7 | B: 50.9* | C: -1.8 | D: -22.9 | E: -6.8 | F: 1.3

[30] NC(=S)N/N=C/c1ccccc1OC(=O)/C=C/c1ccccc1
  A: -3.2 | B: 34.4* | C: -0.5 | D: -40.7 | E: nt | F: nt

Entries above with a furan ring, fused or not:
Abbreviations: A = Vif imaging; B = ARNT-TACC3 inh; C = CAL PDZ FP-1; D = UUG fidelity; E = CAL PDZ FP-2; F = PglD DTNB
[12] C/C(=N\NC(=O)CNC(=O)c1ccc(F)cc1)c1ccco1
  A: 72.5* | B: -4.9 | C: -1.9 | D: -26.7 | E: -0.1 | F: -1.5

[13] Cc1ccc(/C=C/C(=O)Nc2nn[nH]n2)o1
  A: 0.5 | B: 60.6* | C: -2.1 | D: nt | E: -0.6 | F: nt
